Reference: US8168651B2, “Protein kinase modulators” (Cylene Pharmaceuticals, Inc., priority 2008, dated 2012)

Sequences of proteins named here, by UniProt entry; tags and fusion partners are left off.
UniProt P11309, whole entry: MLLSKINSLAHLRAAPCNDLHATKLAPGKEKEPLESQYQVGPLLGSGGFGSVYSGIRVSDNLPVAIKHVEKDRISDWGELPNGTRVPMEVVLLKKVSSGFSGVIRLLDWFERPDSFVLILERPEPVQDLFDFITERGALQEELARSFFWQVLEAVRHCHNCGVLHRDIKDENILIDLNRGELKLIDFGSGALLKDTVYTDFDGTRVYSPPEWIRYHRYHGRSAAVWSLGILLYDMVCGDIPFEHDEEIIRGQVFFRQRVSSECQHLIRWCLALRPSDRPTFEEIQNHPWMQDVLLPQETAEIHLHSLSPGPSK
UniProt P68400, whole entry: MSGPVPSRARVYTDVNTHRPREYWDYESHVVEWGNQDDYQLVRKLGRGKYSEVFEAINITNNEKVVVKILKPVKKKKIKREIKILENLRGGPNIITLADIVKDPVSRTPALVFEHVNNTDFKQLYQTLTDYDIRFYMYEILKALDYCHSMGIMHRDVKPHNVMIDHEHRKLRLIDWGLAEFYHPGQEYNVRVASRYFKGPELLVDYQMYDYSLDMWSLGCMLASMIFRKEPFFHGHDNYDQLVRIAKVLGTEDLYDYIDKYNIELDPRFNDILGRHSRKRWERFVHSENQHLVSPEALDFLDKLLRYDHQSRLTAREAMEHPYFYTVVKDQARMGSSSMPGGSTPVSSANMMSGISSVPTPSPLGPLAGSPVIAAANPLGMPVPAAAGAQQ
UniProt P67870, whole entry partner: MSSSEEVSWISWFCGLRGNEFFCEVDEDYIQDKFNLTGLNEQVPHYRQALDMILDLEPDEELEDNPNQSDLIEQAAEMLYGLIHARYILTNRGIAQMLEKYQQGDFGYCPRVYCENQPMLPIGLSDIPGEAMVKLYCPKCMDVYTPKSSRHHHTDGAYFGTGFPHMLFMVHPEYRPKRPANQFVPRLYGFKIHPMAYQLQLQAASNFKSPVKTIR

What was measured:
K-562 = experiment: Cell proliferation modulatory activity, K-562; assay type: cell-based; conditions: read-out: K-562 (uM) cell proliferation modulatory activity; K-562 cells
recombinant human PIM1 = recombinant human PIM1 (Homo sapiens (Human), UniProt P11309); experiment: PIM-1 kinase activity in cell-free in vitro assay; assay type: biochemical; conditions: for PIM-1: % inh 500 nM: 500 nM compound; for IC50: read-out: PIM1 IC50
recombinant human CK2 = recombinant human CK2 (Homo sapiens (Human), UniProt P68400); experiment: CK2 assay (cell-free, 33P-ATP filter plate); assay type: biochemical; conditions: 500 nM compound
MV-4-11 = experiment: Cell proliferation modulatory activity, MV-4-11; assay type: cell-based; conditions: read-out: MV-4-11 (uM) cell proliferation modulatory activity; MV-4-11 cells

IC50 (K-562) [µM]	PIM-1: % inh 500 nM (recombinant human PIM1) [%]	IC50 (recombinant human PIM1) [nM]	CK2: % inh 500 nM (recombinant human CK2) [%]	IC50 (MV-4-11) [µM]	SMILES
> 10	50.289	834	57.627	2.19	Fc1cccc(Nc2nc3cc(-c4nnn[nH]4)ccc3c3ccsc23)c1
> 10	50.279	1010	57.35	3.66	Fc1cc(F)cc(Nc2nc3cc(-c4nnn[nH]4)ccc3c3ccsc23)c1
